According to patent publication US12716050B2, “Two methods for preparing universal microbial medium by eutectic system-based cellulose liquefaction” (Xinjiang University, priority 2021, dated 2026):

Experiment: Screening of ionic liquids for dissolving microcrystalline cellulose
Format: physicochemical

Measured: Conclusion (dissolution effect of microcrystalline cellulose)

1-butyl-3-methylimidazolium borate
has a poor: No. 4: 10 g IL, 1 g microcrystalline cellulose, 90° C., co-heated | No. 5: 2 g IL, 1.5 g microcrystalline cellulose, 100° C., IL preheated | No. 6: 2 g IL, 1.5 g microcrystalline cellulose, 100° C., IL preheated | No. 7: 10 g IL, 6 g microcrystalline cellulose, 90° C., co-heated
